Measured values taken from ChEMBL document CHEMBL2390917, “Synthesis and biological evaluation of 2-(5-methyl-4-phenyl-2-oxopyrrolidin-1-yl)-acetamide stereoisomers as novel positive allosteric modulators of sigma-1 receptor” (Bioorg Med Chem, 2013).

Amino acid sequences for entries named in this document (tags omitted).
UniProt P21452, whole entry: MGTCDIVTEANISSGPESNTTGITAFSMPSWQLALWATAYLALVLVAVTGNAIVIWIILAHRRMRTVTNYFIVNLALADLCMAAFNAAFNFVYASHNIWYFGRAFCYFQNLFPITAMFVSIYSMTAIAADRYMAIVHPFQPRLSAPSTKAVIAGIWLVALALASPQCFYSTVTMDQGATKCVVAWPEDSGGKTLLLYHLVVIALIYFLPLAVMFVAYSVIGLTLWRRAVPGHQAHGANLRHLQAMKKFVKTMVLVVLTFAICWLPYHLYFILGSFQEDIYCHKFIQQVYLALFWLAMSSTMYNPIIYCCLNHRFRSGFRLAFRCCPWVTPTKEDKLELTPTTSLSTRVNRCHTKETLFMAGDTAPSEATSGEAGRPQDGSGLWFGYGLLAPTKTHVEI

Biological target: Substance-K receptor (Homo sapiens, UniProt P21452)
Assay: Binding affinity to human NK2 receptor by radioligand displacement assay

For `CCCC[C@H](NC(=O)[C@H](CC(C)C)NC(=O)CNC(=O)[C@@H](NC(=O)[C@H](Cc1ccccc1)NC(=O)[C@H](CO)NC(=O)[C@@H](N)CC(=O)O)C(C)C)C(N)=O`, which IC50 is on record?
Its IC50 is 2.5 nM.
